From paper PMC5694482 (Frontiers in Pharmacology, 2017)

Amino acid sequences for entries named in this document (tags omitted). A change or cut given only in a name is not applied to a line headed by its entry.
UniProt Q9Y5N1, whole entry, species assumed: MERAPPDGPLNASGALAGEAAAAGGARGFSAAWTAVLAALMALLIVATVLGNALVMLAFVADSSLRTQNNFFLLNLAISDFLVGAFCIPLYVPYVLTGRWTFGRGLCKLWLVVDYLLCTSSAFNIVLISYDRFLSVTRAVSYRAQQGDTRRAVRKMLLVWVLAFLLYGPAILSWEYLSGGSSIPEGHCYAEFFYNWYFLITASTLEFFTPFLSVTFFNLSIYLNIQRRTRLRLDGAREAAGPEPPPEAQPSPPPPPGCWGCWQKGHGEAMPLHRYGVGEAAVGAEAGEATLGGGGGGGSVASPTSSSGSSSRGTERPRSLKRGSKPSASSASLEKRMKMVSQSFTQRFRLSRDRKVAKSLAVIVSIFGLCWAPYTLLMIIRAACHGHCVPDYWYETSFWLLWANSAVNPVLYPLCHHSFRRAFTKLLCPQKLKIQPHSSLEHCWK

Target: H3R (Homo sapiens, UniProt Q9Y5N1)
Conditions: H3R pKi ± SEM, displacement of 1.15 nM [3H]-histamine, HEK293T cells, Cheng-Prusoff

Work on NC(=NCc1ccc(Cl)cc1)SCCCc1cnc[nH]1 [Clobenpropit, reference compound] yielded a Ki of 0.562 nM.
